{
  "source": "patent US8486429B2",
  "about": "“Storage stable formulation and a process for its preparation” (priority 2005, dated 2013)",
  "origin": "cited, not measured here",
  "system": "crop plants",
  "details": "in vivo; cited from earlier work",
  "data": [
    {"smiles": "CCN(CC)C(=O)C(Cl)=C(C)OP(=O)(OC)OC", "note": "[Phosphamidon, 2-chloro-2-diethylcarbamoyl-1-methylvinyldimethylphosphate]", "values": [
      {"measurement": "phytotoxicity", "value": "non-phytotoxic, except some varieties of cherry, plum, peach and sorghum"}
    ]}
  ]
}
